Antibody variant affinities, Ab-91 heavy chain, assay 2

Source: Engelhart et al. 2022 (doi:10.1038/s41597-022-01779-4), MIT Lincoln Laboratory and A-Alpha Bio; data file from the FLAb repository.

The target is the same throughout: PDVDLGDISGINAS, from the HR2 region of SARS-CoV-2 spike.

Parent scFv Ab-91: VL joined to VH by three GGGGS repeats. Changes lie in the heavy chain CDRs alone.
VL: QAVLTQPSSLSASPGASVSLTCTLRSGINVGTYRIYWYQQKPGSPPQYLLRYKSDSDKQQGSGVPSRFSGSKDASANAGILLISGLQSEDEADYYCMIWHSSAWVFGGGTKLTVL
VH: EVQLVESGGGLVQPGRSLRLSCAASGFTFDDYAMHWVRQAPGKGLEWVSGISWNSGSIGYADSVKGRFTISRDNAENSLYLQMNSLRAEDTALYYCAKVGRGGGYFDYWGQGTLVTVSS

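Phage display of a naive human antibody library on the peptide gave the parent. AAYL51 was designed without a model: most single CDR substitutions and a random sample of double and triple ones. Affinity was read by AlphaSeq, a pooled yeast mating assay with surface-displayed partners. Mating (16 h, 30 °C) was followed by selection of diploids and sequencing of their barcodes. The ratio of observed to expected reads was calibrated, replicate by replicate, on BCL2-family standards whose Kd was known from biolayer interferometry. Mating was done three times.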

The parent's heavy chain CDRs are GFTFDDYAMH, GISWNSGSIGYADSVK, VGRGGGYFDY; each variant's own CDRs replace them letter for letter.
Scale: log10 of Kd in nM, estimated from mating counts; low values are strong binders.
"n.d." marks a missing value. The strain was present, yet no cells mated with the target were sequenced in that replicate, which points to weak or no binding.

CDR-H1,CDR-H2,CDR-H3,"replicates, log10 nM",empty controls
GFLFDDYAMH,GISWNSGSIGYADSVK,VGYGGGYGDY,n.d. n.d. n.d.,0 of 9
QFTFDDYAMH,GISWNGGSIGYADSVK,VGRGGGYFDH,3.06 3.08 3.02,6 of 9 (4.90)
GFTFDDYAMH,GISWNSGSDGYAMFVK,VGRGGGYFDY,n.d. n.d. n.d.,0 of 9
GFPFDDYAMH,GISWNSGSIDYADSVK,VGRGGYYFDY,4.66 4.64 n.d.,2 of 9 (3.87)
GFTGDSYAMH,GISWNSTSIGYADSVK,VGRGGGYFDY,5.29 5.98 n.d.,4 of 9 (4.81)
QFTFDDYAMH,MISWNSGFIGYADSVK,VGRGGGYFDY,n.d. n.d. 2.32,3 of 9 (3.70)
GFTFDDDAMH,GISWNSGSIGYADSVG,KGRGGGYFDY,n.d. n.d. n.d.,0 of 9
GFTFDDYQME,GISWNSGSIGYADSVK,VGRGGGYFDS,n.d. n.d. n.d.,3 of 9 (4.39)
GFTFDDYAMH,GISWNGGRIGYADSVK,VGDGGGYFDY,4.16 4.34 n.d.,3 of 9 (4.17)
GHTFDQYAMH,GISWNSGSIGYARSVK,VGRGGGYFDY,4.69 3.43 3.49,3 of 9 (4.32)
GFTFDDYAMH,GISGNSGSILYADSVK,AGRGGGYFDY,4.52 4.83 n.d.,9 of 9 (4.97)
GFTFDDYAMH,GISWNSGRIGYADSVK,VGRGGSYFDY,4.84 4.98 5.17,9 of 9 (4.92)
GFTFCDYAMH,GISWNSGSIGGADSVK,VGDGGGYFDY,n.d. n.d. n.d.,1 of 9 (3.27)
GFTFDDYAMH,GISWNSGSIGYADSWQ,VGRGWGYFDY,5.24 6.03 n.d.,2 of 9 (4.45)
GFTFDVHAMH,GISWNSGSIGYADSVK,VMRGGGYFDY,4.21 n.d. n.d.,3 of 9 (4.36)
GRTFDDYAMH,GISWNSGSIGYAHSVK,VGRPGGYFDY,n.d. n.d. n.d.,0 of 9
GFTFDDYAMH,GISWNSGSIGYADSVK,VGRGGGYFWC,n.d. n.d. n.d.,0 of 9
GQTFDDYAMH,GISWNSGVIGYFDSVK,VGRGGGYFDY,5.91 5.81 5.37,5 of 9 (5.15)
GFTFDDYAMH,GISWNSGSAGYADSVK,VGRIGGYDDY,n.d. n.d. n.d.,4 of 9 (4.92)
GFTFDDRAMH,GISWNSGSICYADSVK,VGRGGCYFDY,3.01 2.66 2.51,4 of 9 (4.92)
GPTFDDYAMH,GISWNSGSIGYADSVK,VGCGGGYFDY,n.d. n.d. n.d.,0 of 9
GFWFDDYAMH,GISWNSGSHGYADSVK,VGRGGGYFDY,2.18 2.04 2.47,1 of 9 (4.78)
GFTFDDYAMH,AISLNSGSIGLADSVK,VGRGGGYFDY,n.d. n.d. n.d.,0 of 9
GFTFDDYAMH,GISWNSGSIGYGDSFK,VWRGGGYFDY,1.47 1.10 0.55,7 of 9 (4.57)
GLTFDDYAMH,GISWNSGVKGYADSVK,VGRGGGYFDY,n.d. 3.61 3.22,6 of 9 (4.47)
GFTFDDYAMH,WISWNSGSIQYADSVK,VGRGGGYFDD,n.d. n.d. n.d.,0 of 9
GFTFDDYAMH,GFHWNSYSIGYADSVK,VGRGGGYFDY,n.d. n.d. n.d.,0 of 9
GFTFDDYAMH,GISWPSGSIGYADSSK,VGRGGHYFDY,n.d. n.d. n.d.,1 of 9 (4.02)
GKNFDDYAMH,GISWNSGSIGYAFSVK,VGRGGGYFDY,n.d. 4.27 n.d.,5 of 9 (4.39)
GFTFDDIAMH,GISVNSGSIGYADSVK,VGRGGGYFDY,n.d. n.d. n.d.,0 of 9
GFAFDDYAMH,GISRNSGSIGYADSVK,VGRGGSYFDY,n.d. n.d. n.d.,0 of 9
GFQFDDYAMH,GISMNSGSIGYADSVK,VGRGGGTFDY,3.44 n.d. 2.92,0 of 9
GFTFDDYAMH,GISWNSGSIGYADSVI,HGRGGGYFDN,2.51 2.73 2.03,0 of 9
GFTFDPYARH,GISWNSGSIGYADSVW,VGRGGGYFDY,n.d. n.d. n.d.,2 of 9 (4.53)
GFTFLDYAMH,GISWGSGSIGYADSVK,VGRGGGYNDY,4.40 n.d. n.d.,1 of 9 (4.65)
GFTFDEYAMH,GISWNSGSIGYADIVK,VGRGGGYFDY,1.05 1.06 0.55,2 of 9 (3.07)
GFTADDYAMH,GIDWNSGSIGYHDSVK,VGRGGGYFDY,n.d. n.d. n.d.,0 of 9
GFTFDDYAMH,GESWNMGSIGYADSVK,VGRPGGYFDY,4.78 n.d. n.d.,3 of 9 (3.83)
GFTFDDYAMI,GISWNSGSIGCADSVK,VGRGGGWFDY,n.d. n.d. n.d.,5 of 9 (4.68)
GFTFDDYAMI,GIVWNSGSIGYADSVK,VGRGGGYFDY,n.d. n.d. n.d.,0 of 9
GFTFDDYAMH,GISWNSGSIGKADSVK,VGRGGATFDY,n.d. 4.50 n.d.,1 of 9 (5.19)
GFTFDDYAMH,GDSWNSESIGYIDSVK,VGRGGGYFDY,4.41 n.d. n.d.,3 of 9 (4.38)

Again, the first 6 entries without any signal:

CDR-H1,CDR-H2,CDR-H3,"replicates, log10 nM",empty controls
GFLFDDYAMH,GISWNSGSIGYADSVK,VGYGGGYGDY,n.d. n.d. n.d.,0 of 9
GFTFDDYAMH,GISWNSGSDGYAMFVK,VGRGGGYFDY,n.d. n.d. n.d.,0 of 9
GFTFDDDAMH,GISWNSGSIGYADSVG,KGRGGGYFDY,n.d. n.d. n.d.,0 of 9
GFTFDDYQME,GISWNSGSIGYADSVK,VGRGGGYFDS,n.d. n.d. n.d.,3 of 9 (4.39)
GFTFCDYAMH,GISWNSGSIGGADSVK,VGDGGGYFDY,n.d. n.d. n.d.,1 of 9 (3.27)
GRTFDDYAMH,GISWNSGSIGYAHSVK,VGRPGGYFDY,n.d. n.d. n.d.,0 of 9

For reference, the parent read 1.86 as the reference entry and 0.88 as a member of this library.
Background: pairings of library AAYL51 with three empty control strains gave a value in 21% of cases (median 4.54, 5th percentile 3.26). Values in that range, when seen in few replicates, are hard to tell from nonspecific mating. The control count says in how many pairings with the empty strains this scFv gave a signal, with their mean in brackets.